Results published in PubChem BioAssay AID759 (NMMLSC, 2007).
Only a part is listed here, and it is no random draw. Calls of active or inactive are those of the source.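 The calls were made as follows: active = GTP binding activity at least 20% away from the 100% baseline, either lowered as inhibitor or raised as activator; inconclusive = flagged as likely green fluorescent, judged across all proteins in the well; inactive = the rest.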

What follows are compounds tested against GTPase HRas (Homo sapiens) (UniProt P01112) (assay: HRas wt fluorescent GTP binding changes, either direction – biochemical, wildtype, bead-based flow cytometry, multiplex, primary screen (AID 759;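 also: 0% = unlabeled GTP competition control and 100% = no-compound control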)). Conditions: GST-Ras wt beads, Bodipy-FL-GTP binding, at 10 µM, actives lie on both sides.

Compound | GTP binding activity
CC(=O)NC(SC(=S)N(C)C)C(Cl)(Cl)Cl (centres undefined) | inactive: 102%
O=C(OC1CN2CCC1CC2)c1cccc(Cl)c1 (centres undefined) | inactive: 103%
C(Cc1nn[nH]n1)Cc1nn[nH]n1 | inactive: 104%
O=P(Nc1ccccn1)(c1ccc(Br)cc1)c1ccc(Br)cc1 | inactive: 96%
O=P(Nc1nccs1)(c1ccccc1)c1ccccc1 | inactive: 103%
CC(C)C(=O)NC(Sc1ccccc1)C(Cl)(Cl)Cl (centres undefined) | inactive: 100%
c1nnnn1CCn1cnnn1 | inactive: 104%
CC(=O)Nc1ccc(Oc2c([N+](=O)[O-])cc([N+](=O)[O-])cc2[N+](=O)[O-])cc1 | inactive: 89%
CCOc1ccc(C2=NCC(CBr)S2)cc1 (centres undefined) | inactive: 94%
O=P1(Nc2nc3ccc(Cl)cc3s2)COc2ccccc2O1 (centres undefined) | inactive: 95%
CC(C)(C)C(=O)NC(Sc1ccccc1)C(Cl)(Cl)Cl (centres undefined) | inactive: 94%
CCC(=O)N1C2C3N(C(=O)CC)C1C1N(C(=O)CC)C(C(N1C(=O)CC)N3C(=O)CC)N2C(=O)CC | inactive: 99%
Cc1ccc(OP(=O)(Nc2ccccn2)Oc2ccc(C)cc2)cc1 | inactive: 92%
CC(=O)NC(SC(=S)N(CC(C)C)CC(C)C)C(Cl)(Cl)Cl (centres undefined) | inactive: 97%
COC(=O)c1cc2c(s1)N=C(c1ccccc1)N(C)P2(=O)N1CCOCC1 (centres undefined) | inactive: 96%
O=c1c2cc([N+](=O)[O-])ccc2[nH]c2c([N+](=O)[O-])cc([N+](=O)[O-])cc12 | inactive: 94%
CCOC(=O)NC(Sc1ccccc1)C(Cl)(Cl)Cl (centres undefined) | inactive: 97%
c1ccc(-c2nn[nH]n2)c(-c2nn[nH]n2)c1 | inactive: 95%
O=C(NC1CCS(=O)(=O)C1)NP(=S)(Oc1ccccc1)Oc1ccccc1 (centres undefined) | inactive: 96%
CCNC(=S)/N=C(\N)N[N+](=O)[O-] | inactive: 98%
CCN(N=Nc1nonc1N)c1nonc1N | inactive: 102%
Cc1cc(SC(NC(=O)c2ccc(F)cc2)C(Cl)(Cl)Cl)ncn1 (centres undefined) | inactive: 99%
CCOP(=O)(Nc1ccccc1)OCC | inactive: 105%
O=C(NC(Sc1ccncn1)C(Cl)(Cl)Cl)c1ccccc1 (centres undefined) | inactive: 100%
Cc1c2non([O-])c-2c(C)[n+](=O)[n+]1[O-] | inactive: 96%
Oc1ccccc1CNc1ccccn1 | inactive: 102%
CC(C)CC(=O)NC(Sc1ccc(Cl)cc1)C(Cl)(Cl)Cl (centres undefined) | inactive: 102%
Cc1ccc(N/C(=N/P(=O)(N2CCOCC2)N2CCOCC2)N2CCOCC2)cc1 | inactive: 97%
NC(=O)c1cc([N+](=O)[O-])cc([N+](=O)[O-])c1N | inactive: 98%
